Laboratory results: ChEMBL document CHEMBL1212811, “Chemical phylogenetics of histone deacetylases” (Nat Chem Biol, 2010)

Amino acid sequences for entries named in this document (tags omitted). A change or cut given only in a name is not applied to a line headed by its entry.
UniProt Q9UKV0: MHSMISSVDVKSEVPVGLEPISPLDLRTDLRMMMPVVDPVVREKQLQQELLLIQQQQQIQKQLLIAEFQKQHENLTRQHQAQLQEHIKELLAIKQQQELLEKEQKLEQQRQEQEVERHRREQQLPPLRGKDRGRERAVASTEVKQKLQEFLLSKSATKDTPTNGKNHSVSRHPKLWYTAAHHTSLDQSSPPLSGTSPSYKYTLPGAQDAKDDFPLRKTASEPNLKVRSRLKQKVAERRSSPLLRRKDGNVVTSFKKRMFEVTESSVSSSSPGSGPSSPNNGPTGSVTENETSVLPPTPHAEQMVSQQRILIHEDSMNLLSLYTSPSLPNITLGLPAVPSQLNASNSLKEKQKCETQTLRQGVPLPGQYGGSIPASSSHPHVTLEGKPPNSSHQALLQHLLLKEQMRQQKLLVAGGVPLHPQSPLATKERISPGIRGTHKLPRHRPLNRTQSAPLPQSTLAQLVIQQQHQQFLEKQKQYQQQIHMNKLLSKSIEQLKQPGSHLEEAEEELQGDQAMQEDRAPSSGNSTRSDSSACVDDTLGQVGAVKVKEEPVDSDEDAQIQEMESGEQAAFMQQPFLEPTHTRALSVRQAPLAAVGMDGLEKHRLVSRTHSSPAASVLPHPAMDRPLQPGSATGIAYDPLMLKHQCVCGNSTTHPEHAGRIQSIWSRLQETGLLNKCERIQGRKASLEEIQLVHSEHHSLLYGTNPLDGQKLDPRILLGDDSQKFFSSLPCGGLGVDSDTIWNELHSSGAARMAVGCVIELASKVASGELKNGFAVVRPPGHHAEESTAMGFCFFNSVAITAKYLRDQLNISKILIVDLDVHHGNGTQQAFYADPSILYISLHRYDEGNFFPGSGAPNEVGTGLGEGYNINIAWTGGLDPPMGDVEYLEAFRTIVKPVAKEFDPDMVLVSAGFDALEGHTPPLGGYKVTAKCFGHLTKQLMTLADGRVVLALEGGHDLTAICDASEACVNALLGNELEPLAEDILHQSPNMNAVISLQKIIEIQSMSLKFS

Biological target: Histone deacetylase 9 (Homo sapiens, UniProt Q9UKV0)

Ki: 0.8 µM
SMILES: CC(/C=C/C(=O)NO)=C\[C@@H](C)C(=O)c1ccc(N(C)C)cc1 [TRICHOSTATIN]
